The target of this assay is T1, δ opioid receptor (Rattus norvegicus, UniProt P33533).
T1 construct: Rat membrane synaptosome preparations (P2 fraction) were prepared as detailed previously; from tissue; host or cells: rat synaptosomal membranes (P2 fraction)
The experiment in a line: δ receptor binding, rat membrane synaptosomes, [3H]DPDPE. To be noted: rat synaptosomes (P2), mean ± SEM. The method, then:
Rat membrane synaptosome preparations (P2 fraction) were prepared as detailed previously, which included a preincubation step to reduce the presence of endogenous ligands and binding of G proteins (33,40). The δ and μ receptor sites were labeled with [^3 H]DPDPE (34.3 Ci/mmol) and [^3 H]DAGO (60.0 Ci/mmol), respectively, under equilibrium conditions (2 hr at 22°-23° C.). Samples were rapidly filtered through wetted glass fiber filters and thoroughly washed with 6 mL (3×2 mL) ice-cold 50 mM Tris-HCl, pH 7.5, containing 0.01-0.1% chicken egg albumin or bovine serum albumin. Each peptide was assayed in duplicate with 5-9 dosages using 3-4 synaptosomal preparations. The filters were dried at 70° C. and the radioactivity determined after an overnight incubation period in CytoScint to maximize the radioactivity detected and reduce variability between samples. The IC50 values were converted to affinity constants (Ki) according to Cheng and Prusoff (48).

Chains of the proteins cited; added tags and fusions are not shown. Lines headed by an entry give the natural chain unless they say otherwise; changes in a name come on top.
UniProt P33533, whole entry: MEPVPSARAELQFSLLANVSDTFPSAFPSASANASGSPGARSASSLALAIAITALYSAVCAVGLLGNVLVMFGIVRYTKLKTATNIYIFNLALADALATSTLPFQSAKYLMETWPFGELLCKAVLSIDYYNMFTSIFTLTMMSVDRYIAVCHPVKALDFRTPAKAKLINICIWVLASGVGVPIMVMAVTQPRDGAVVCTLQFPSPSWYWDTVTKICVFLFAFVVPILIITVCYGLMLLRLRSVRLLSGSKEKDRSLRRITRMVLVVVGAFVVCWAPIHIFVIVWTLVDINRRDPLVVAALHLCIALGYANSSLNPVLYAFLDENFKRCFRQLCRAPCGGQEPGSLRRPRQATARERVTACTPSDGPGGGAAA

Usually Ki stands for a measure of affinity in units of concentration, obtained from inhibition or displacement. Compound `Cc1cc(O)cc(C)c1C[C@H](N)C(=O)N1Cc2ccccc2C[C@@H]1C(=O)O` [Peptide 3, Dmt-D-Tic-OH] gave a Ki of 13.5 ± 1.59 nM.

The record behind these values is patent US5780589A, “Ultraselective opioidmimetic peptides and pharmacological and therapeutic uses thereof” (The United States of America as represented by the …, priority 1994, dated 1998).
